From patent US20130171163A1, “Inhibition of LAR Phosphatase to Enhance Therapeutic Angiogenesis” (priority 2010, published 2013)

Chains of the proteins cited; added tags and fusions are not shown. Residues count along the entry.
UniProt P08069, 741-1367 limits assumed: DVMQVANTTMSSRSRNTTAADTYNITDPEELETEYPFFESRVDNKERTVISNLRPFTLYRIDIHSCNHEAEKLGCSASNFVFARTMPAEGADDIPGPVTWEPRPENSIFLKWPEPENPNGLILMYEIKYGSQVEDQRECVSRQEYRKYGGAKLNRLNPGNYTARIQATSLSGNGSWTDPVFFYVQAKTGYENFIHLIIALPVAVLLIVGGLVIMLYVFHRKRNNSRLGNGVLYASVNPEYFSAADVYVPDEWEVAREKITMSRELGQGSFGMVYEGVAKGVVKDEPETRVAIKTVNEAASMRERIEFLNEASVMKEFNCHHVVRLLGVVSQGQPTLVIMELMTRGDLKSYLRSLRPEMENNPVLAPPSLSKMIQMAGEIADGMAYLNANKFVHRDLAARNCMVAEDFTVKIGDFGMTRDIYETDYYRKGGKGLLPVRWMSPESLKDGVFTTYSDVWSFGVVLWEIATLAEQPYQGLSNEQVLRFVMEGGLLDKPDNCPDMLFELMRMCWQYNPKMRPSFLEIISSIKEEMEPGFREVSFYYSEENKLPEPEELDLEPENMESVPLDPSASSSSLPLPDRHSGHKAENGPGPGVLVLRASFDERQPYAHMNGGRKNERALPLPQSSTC
UniProt P08069, 31-736 limits assumed: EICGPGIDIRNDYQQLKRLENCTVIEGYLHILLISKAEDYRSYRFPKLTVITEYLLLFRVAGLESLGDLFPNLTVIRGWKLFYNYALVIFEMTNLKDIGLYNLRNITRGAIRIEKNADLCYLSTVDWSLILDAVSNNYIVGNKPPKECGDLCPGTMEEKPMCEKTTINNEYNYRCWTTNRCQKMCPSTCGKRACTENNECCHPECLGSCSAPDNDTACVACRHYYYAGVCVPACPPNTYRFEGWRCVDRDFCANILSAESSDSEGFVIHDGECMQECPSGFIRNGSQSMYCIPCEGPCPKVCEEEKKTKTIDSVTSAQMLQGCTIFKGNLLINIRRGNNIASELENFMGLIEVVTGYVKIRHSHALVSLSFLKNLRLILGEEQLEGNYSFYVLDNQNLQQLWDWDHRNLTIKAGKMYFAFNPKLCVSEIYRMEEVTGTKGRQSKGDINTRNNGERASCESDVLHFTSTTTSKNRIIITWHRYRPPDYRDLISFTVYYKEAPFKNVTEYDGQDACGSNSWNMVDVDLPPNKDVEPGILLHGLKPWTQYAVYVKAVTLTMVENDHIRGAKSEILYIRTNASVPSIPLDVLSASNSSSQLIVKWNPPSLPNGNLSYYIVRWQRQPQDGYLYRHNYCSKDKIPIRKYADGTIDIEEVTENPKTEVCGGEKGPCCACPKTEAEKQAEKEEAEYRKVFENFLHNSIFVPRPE

Molecular target: T1, IGF-1Rβ-LAR complex (Homo sapiens, UniProt P08069)
T1 construct: LAR co-immunoprecipitated with IGF-1Rβ in untreated HUVECs; endogenous in cells; host or cells: HUVEC (Cambrex)
Experiment: Co-immunoprecipitation of LAR with IGF-1Rβ in HUVECs
Assay type: cell-based
Conditions: 100 ng/ml IGF-1 for 10 min
Method: Preparation of cell lysates, immunoprecipitation and immunoblotting were performed as described (Reinmuth et al., Clin. Cancer Res. 8:3259 (2002)).
Analogous experiments were performed to determine whether binding of LAR to IGF-1Rβ accounts for the negative regulation of IGF-1Rβ by this PTP in HUVECs. Cell lysates from HUVECs, treated without or with IGF-1, were immunoprecipitated with anti-cytoplasmic LAR (cLAR) antibody and Western blotting was performed with anti-IGF-1Rβ antibody.

Association of LAR with IGF-1Rβ: significantly enhanced
Substance: IGF-1: Recombinant human IGF-1 purchased from R&D Systems
